The values that follow are results of earlier work, collected in patent publication US20250281633A1, “HER2 TARGETING FC ANTIGEN BINDING FRAGMENT-DRUG CONJUGATES” (MERCK PATENT GMBH, priority 2021, published 2025).

For this data set the following is noted: mouse; cited from earlier work.

With “Trastuzumab Fab: literature Fab fragment of Trastuzumab lacking the Fc portion”, the “terminal t1/2” value is given as 4.4 h.
